Laboratory results: patent US9605022B2, “Macrocyclic compounds for inhibition of inhibitors of apoptosis” (Ensemble Therapeutics Corporation, priority 2012, dated 2017)

The chains behind the UniProt entries cited, without tags or fusion partners. Where a name states a change or a piece, a line headed by the entry shows the natural chain unless it says otherwise. Residues count along the entry.
UniProt P98170, 241-356 limits assumed: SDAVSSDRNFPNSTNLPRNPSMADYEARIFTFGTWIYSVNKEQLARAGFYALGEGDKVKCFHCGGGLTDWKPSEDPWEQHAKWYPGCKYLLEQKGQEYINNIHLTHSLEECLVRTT
UniProt P98170, 125-356 C202A/C213G limits assumed: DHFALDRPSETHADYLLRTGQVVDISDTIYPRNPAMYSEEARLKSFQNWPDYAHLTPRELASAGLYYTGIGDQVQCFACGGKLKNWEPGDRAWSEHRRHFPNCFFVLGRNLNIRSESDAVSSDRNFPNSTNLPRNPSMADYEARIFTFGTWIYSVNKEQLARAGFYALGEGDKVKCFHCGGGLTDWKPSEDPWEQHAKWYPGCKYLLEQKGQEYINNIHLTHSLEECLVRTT

Assays:
[1] = target: XIAP BIR3 (His-BIR3 (241-356, XIAP)) (Homo sapiens (Human), UniProt P98170); test: XIAP-BIR3/SMAC Homogeneous Time Resolved Fluorescence (HTRF) Assay; settings: read-out: XIAP BIR3 FRET IC50, 1 nM N-His-BIR3, 5 nM fluorescein labeled SMAC peptide
Procedure: Assays were performed in black, flat-bottom, 384-well plates. The final assay volume was 50 μL prepared from additions of His-BIR3 (241-356, XIAP), fluorescein labeled SMAC peptide, and test compounds in assay buffer consisting of 20 mM Sodium Phosphate, 1 mM EDTA, 50 mM NaCl, 50 μg/ml BSA, and 0.05% Pluronic F68. The reaction was incubated at room temperature for 60 minutes, following which 10 μl of mouse anti-6xHis-terbium labeled Fab (Medarex, Cis-bio) was added to the reaction (40 IA for an additional 30 minute incubation. The HTRF signal, ratio of fluorescence intensities at emission wavelengths for fluorescein acceptor (520 nm) and terbium donor (615 nm), the 520/615 ratio, generated by the reaction was then measured on the Envision Plate Reader Inhibition data were calculated from the 520/615 ratio generated by the no protein control reactions for 100% inhibition and vehicle-only reactions for 0% inhibition. The final concentration of reagents in the assay was 1 nM N-His-BIR3(241-356, XIAP), 5 nM fluorescein labeled SMAC peptide, 0.25 nM anti-His-Tb-Fab, and 0.1% DMSO. Dose response curves were generated to determine the concentration required for inhibiting 50% of the HTRF signal (IC50). Compounds were dissolved at 3 mM in dimethylsulfoxide (DMSO) and evaluated at eleven serially diluted concentrations. IC50 and Ki values were derived by non-linear regression analysis.

[2] = target: XIAP BIR2-3 (His-BIR2-3 (125-356, C202A/C213G, XIAP)) (Homo sapiens (Human), UniProt P98170, C202A/C213G); test: XIAP-BIR2-3 Dimeric SMAC Peptide Homogeneous Time Resolved Fluorescence (HTRF) Assay; settings: read-out: XIAP BIR2-3 FRET IC50; 0.5 nM N-His-BIR2-3, 20 nM fluorescein labeled dimeric SMAC peptide
Procedure: Assays were performed in black, flat-bottom, 384-well plates. The final assay volume was 50 μL prepared from additions of His-BIR2-3 (125-356, C202A/C213G, XIAP), fluorescein labeled dimeric SMAC peptide, and test compounds in assay buffer consisting of 20 mM Sodium Phosphate, 1 mM EDTA, 50 mM NaCl, 50 μg/ml BSA, and 0.05% Pluronic F68. The reaction was incubated at room temperature for 60 minutes, following which 10 μl of mouse anti-6xHis-Tb IgG (Medarex, Cis-bio) was added to the reaction (40 μl) for an additional 30 minute incubation. The HTRF signal, ratio of fluorescence intensities at emission wavelengths for fluorescein acceptor (520 nm) and terbium donor (615 nm), the 520/615 ratio, generated by the reaction was then measured on the Envision Plate Reader. Inhibition data were calculated from the 520/615 ratio generated by the no protein control reactions for 100% inhibition and vehicle-only reactions for 0% inhibition. The final concentration of reagents in the assay was 0.5 nM N-His-BIR2-3(125-356, C202A/C213G, XIAP), 20 nM fluorescein labeled dimeric SMAC peptide, 0.25 nM anti-His-Tb-Fab, and 0.1% DMSO. Dose response curves were generated to determine the concentration required for inhibiting 50% of the HTRF signal (IC50). Compounds were dissolved at 3 mM in dimethylsulfoxide (DMSO) and evaluated at eleven serially diluted concentrations. […]

With `CN[C@@H](C)C(=O)N[C@H](C(=O)N1CC[C@@H]2[C@H]1C(=O)N[C@@H](Cc1ccc3ccccc3c1)C(=O)N[C@H](C(=O)O)Cc1ccc(cc1)OCc1cn(nn1)[C@@H]1CCN(C(=O)[C@@H](NC(=O)[C@H](C)NC)C(C)(C)C)[C@@H]1C(=O)N[C@@H](Cc1ccc3ccccc3c1)C(=O)N[C@H](C(=O)NCc1cc(F)c(O)c(F)c1)Cc1ccc(cc1)OCc1cn2nn1)C(C)(C)C` the IC50 [1] was 9.1 nM and the IC50 [2] was 1.2 nM.
`CNC(C)C(=O)NC(C(=O)N1CCC2OCc3cn(nn3)CCC(C(=O)O)NC(=O)C(Cc3ccc4ccccc4c3)NC(=O)C3C(CCN3C(=O)C(NC(=O)C(C)NC)C(C)(C)C)OCc3cn(nn3)CCC(C(=O)O)NC(=O)C(Cc3ccc4ccccc4c3)NC(=O)C21)C(C)(C)C` (stereo not drawn) was tested, and the IC50 ([1]; tested form: TFA salt) was 16.5 nM.

Where two headings read alike, the source gives them in different places.
